Values quoted from earlier work as cited in patent US8449896B2, “Pharmaceutical composition having improved solubility” (Daiichi Sankyo Company, Limited, priority 2009, dated 2013).

Protein sequences, listed by entry. Tags and fused reporters are not part of them. Residues count along the entry.
UniProt P00742, 41-179 partner limits assumed: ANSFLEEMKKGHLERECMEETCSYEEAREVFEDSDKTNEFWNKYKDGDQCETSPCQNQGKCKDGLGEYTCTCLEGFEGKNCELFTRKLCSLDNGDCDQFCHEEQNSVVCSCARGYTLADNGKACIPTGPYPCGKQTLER
UniProt P00742, 235-488 limits assumed: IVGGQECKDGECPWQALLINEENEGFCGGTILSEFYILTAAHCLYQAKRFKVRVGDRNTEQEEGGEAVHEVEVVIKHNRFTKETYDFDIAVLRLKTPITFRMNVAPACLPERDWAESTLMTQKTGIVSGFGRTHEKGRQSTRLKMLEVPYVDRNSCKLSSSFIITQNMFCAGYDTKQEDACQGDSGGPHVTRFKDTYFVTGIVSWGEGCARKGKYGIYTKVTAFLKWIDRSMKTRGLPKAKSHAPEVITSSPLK

Target: activated blood coagulation factor X (FXa) (Homo sapiens, UniProt P00742)
Settings: known from Patent Documents 1 to 4; cited from earlier work

SMILES: CN1CCc2nc(C(=O)N[C@@H]3C[C@@H](C(=O)N(C)C)CC[C@@H]3NC(=O)C(=O)Nc3ccc(Cl)cn3)sc2C1 [compound I, N^1-(5-chloropyridin-2-yl)-N^2-((1S,2R,4S)-4-[(dimethylamino)carbonyl]-2-{[(5-methyl-4,5,6,7-tetrahydrothiazolo[5,4-c]pyridin-2-yl)carbonyl]amino}cyclohexyl)ethanediamide]
- inhibitory effect on activated blood coagulation factor X: potent inhibitory effect
